We go through 3 molecules from patent US5574012A, “Analogs of hirudin having anti-platelet activity” (Merrell Pharmaceuticals Inc., priority 1995, dated 1996).

The experiment deals with thrombin (Bos taurus, UniProt P00735). The experiment is described as follows: biochemical. The arrangement: species or system Bovine.

Usually IC50 stands for the point on the concentration scale where inhibition reaches its midpoint. Read a high IC50 as lower potency. With `CC[C@H](C)[C@H](NC(=O)[C@@H]1CCCN1C(=O)[C@H](CCC(=O)O)NC(=O)[C@H](Cc1c[nH]c2ccccc12)NC(=O)[C@H](CC(=O)O)NC(=O)CNC(=O)CCCCNC(=N)N)C(=O)N1CCC[C@H]1C(=O)N[C@@H](CCC(=O)O)C(=O)N[C@@H](CCC(=O)O)C(=O)N[C@@H](C)C(=O)N[C@@H](CC1CCCCC1)C(=O)N[C@H](CCC(=O)O)C(=O)O` [Example 1], inhibition was half-maximal at 1.6 µM (IC50).

`CC[C@H](C)[C@H](NC(=O)[C@@H]1CCCN1C(=O)[C@H](CCC(=O)O)NC(=O)[C@H](Cc1ccc(OC)cc1)NC(=O)[C@H](CC(=O)O)NC(=O)CNC(=O)CCCCNC(=N)N)C(=O)N1CCC[C@H]1C(=O)N[C@@H](CCC(=O)O)C(=O)N[C@@H](CCC(=O)O)C(=O)N[C@@H](C)C(=O)N[C@@H](CC1CCCCC1)C(=O)N[C@H](CCC(=O)O)C(=O)O` [Example 6, 5GP-Gly-Asp-Tyr(OCH3)-Glu-Pro-Ile-Pro-Glu-Glu-Ala-Cha-glu-OH] displayed an IC50 of 5.9 µM.

`CC[C@H](C)[C@H](NC(=O)[C@@H]1CCCN1C(=O)[C@H](CCC(=O)O)NC(=O)[C@H](Cc1ccc(OC)cc1)NC(=O)[C@H](CC(=O)O)NC(=O)CNC(=O)CCCCN)C(=O)N1CCC[C@H]1C(=O)N[C@@H](CCC(=O)O)C(=O)N[C@@H](CCC(=O)O)C(=O)N[C@@H](C)C(=O)N[C@@H](CC1CCCCC1)C(=O)N[C@H](CCC(=O)O)C(=O)O` [Example 4, 5AP-Gly-Asp-Tyr(OCH3)-Glu-Pro-Ile-Pro-Glu-Glu-Ala-Cha-glu-OH]: the IC50 amounted to 5.4 µM.
